Measurements from publication PMC5193075 (The Journal of Pharmacology and Experimental Therapeutics, 2017).

Tested on: cryopreserved human primary hepatocytes
Assay: Drug depletion
Settings: pooled hepatocytes data; parentheses = relative standard error

## O=C(O)Cc1ccccc1Nc1c(Cl)cccc1Cl [Diclofenac, diclofenac]
  interwell variability in unbound intrinsic clearance (IWV): 23.6% (54.4%) CV%
